PubChem BioAssay AID1021 (Emory University Molecular Libraries Screening Center, 2008)
Values joined by “and” are separate entries in the source; they are usually repeats but may differ in a detail not shown here. Equal entries are not always repeated. The entries are a selection whose mix differs from that of the whole data set. Active and inactive are the calls of the source.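 The calls were made as follows: active = compounds that cut the binding signal by more than half at the single screening dose; inactive = the rest.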

The chains behind the UniProt entries cited, without tags or fusion partners.
UniProt Q07820, whole entry, looked up: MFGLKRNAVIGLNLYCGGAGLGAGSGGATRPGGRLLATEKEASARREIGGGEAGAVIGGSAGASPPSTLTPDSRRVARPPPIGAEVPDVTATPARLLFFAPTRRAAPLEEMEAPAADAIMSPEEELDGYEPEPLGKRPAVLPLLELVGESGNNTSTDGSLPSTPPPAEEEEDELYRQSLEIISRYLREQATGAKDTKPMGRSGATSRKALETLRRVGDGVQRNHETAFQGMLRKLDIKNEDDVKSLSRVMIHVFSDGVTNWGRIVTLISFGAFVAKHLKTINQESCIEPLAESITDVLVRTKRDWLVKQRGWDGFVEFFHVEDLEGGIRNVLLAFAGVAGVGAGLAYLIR

Each compound was assayed against Induced myeloid leukemia cell differentiation protein Mcl-1 (Homo sapiens) (UniProt Q07820) (assay: Mcl-1/Bid binding inhibitors, primary screen, biochemical, TR-FRET, 1536-well (AID 1021;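 also: His-tagged Mcl-1 with europium anti-His antibody binding Bid BH3 peptide; 0% = Mcl-1 plus peptide wells and 100% = peptide-only wells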)). Conditions: TR-FRET Mcl-1/Bid-Dy647 peptide binding, at 21.7 µM, hits give high values.
`CC(=O)Nc1ccc(Oc2c([N+](=O)[O-])cc([N+](=O)[O-])cc2[N+](=O)[O-])cc1` was tested, and the inhibition was inactive: -0.69%. For `CC(=O)Nc1ccc([As](=O)(O)O)c(O)c1`, the inhibition was inactive: -16.4%. With `C[C@H]1OP(=O)(Oc2ccccc2)C[C@@H]2O[C@@H]21` (some centres not stated) the inhibition was inactive: -51.9%. With `C[C@@H]1C=CCP(=O)(Oc2ccccc2)O1` (some centres not stated) the inhibition was inactive: -42.4%. `CC(C)(C)C(=O)NC(Sc1ccccc1)C(Cl)(Cl)Cl` (configuration not stated) was tested, and the inhibition was inactive: -13.5%. In the case of `CCOc1ccc(C2=NCC(CBr)S2)cc1` (configuration not stated), the inhibition is reported as inactive: 11.4%. With `O=P1(Nc2nc3ccc(Cl)cc3s2)COc2ccccc2O1` (configuration not stated) the inhibition was inactive: -35.1%. `O=c1c2cc([N+](=O)[O-])ccc2[nH]c2c([N+](=O)[O-])cc([N+](=O)[O-])cc12` was tested, and the inhibition was inactive: 4.89%. In the case of `CN(C)C(=O)Oc1noc2ccccc12`, the inhibition is reported as inactive: -9.72%. `Cc1ccccc1OP(=O)(Nc1ccccn1)Oc1ccccc1C` was tested, and the inhibition was inactive: -6.37%. For `CC(=O)NC(SC(=S)N(CC(C)C)CC(C)C)C(Cl)(Cl)Cl` (configuration not stated), the inhibition was inactive: 36.7%. `Cc1ccc(OP(=O)(Nc2ccccn2)Oc2ccc(C)cc2)cc1` was tested, and the inhibition was inactive: -6.73%. `COC(=O)c1cc2c(s1)N=C(c1ccccc1)N(C)P2(=O)N1CCOCC1` (configuration not stated) was tested, and the inhibition was inactive: -10.8%. For `CCC(=O)N1C2C3N(C(=O)CC)C1C1N(C(=O)CC)C(C(N1C(=O)CC)N3C(=O)CC)N2C(=O)CC`, the inhibition was inactive: -21.3%. `CCNC(=S)/N=C(\N)N[N+](=O)[O-]` was tested, and the inhibition was inactive: -38.5%. `O=C(NC1CCS(=O)(=O)C1)NP(=S)(Oc1ccccc1)Oc1ccccc1` (configuration not stated) was tested, and the inhibition was inactive: -6.38%. `Cc1ccc(NP(=O)(Oc2cccc(C)c2)Oc2cccc(C)c2)nc1` was tested, and the inhibition was inactive: -20.1%. In the case of `CCOC(=O)NC(Sc1ccccc1)C(Cl)(Cl)Cl` (configuration not stated), the inhibition is reported as inactive: -21.4%. In the case of `c1ccc(-c2nn[nH]n2)c(-c2nn[nH]n2)c1`, the inhibition is reported as inactive: 18.5%. For `C(Cc1nn[nH]n1)Cc1nn[nH]n1`, the inhibition was inactive: 43.8%. `Nc1ccc([As](=O)(O)c2ccc([N+](=O)[O-])cc2)cc1` was tested, and the inhibition was inactive: -21.5%. For `O=C(OC1CN2CCC1CC2)c1cccc(Cl)c1` (configuration not stated), the inhibition was inactive: -10.5%. `CC(=O)NC(SC(=S)N(C)C)C(Cl)(Cl)Cl` (configuration not stated) was tested, and the inhibition was inactive: -18.8%. With `O=[N+]([O-])c1ncn(CCn2cnc([N+](=O)[O-])n2)n1` the inhibition was inactive: -10.3%. `O=[As](O)(c1ccccc1)c1ccc(O)cc1` was tested, and the inhibition was inactive: -0.73%. For `C[C@H]1OP(=O)(Oc2ccccc2)[C@H](O)[C@H](O)[C@H]1N=[N+]=[N-]` (some centres not stated), the inhibition was inactive: -40.2%. With `O=P(Nc1nc2ccccc2s1)(c1ccccc1)c1ccccc1` the inhibition was inactive: -15.9%. With `O=P(Nc1ccccn1)(c1ccc(Br)cc1)c1ccc(Br)cc1` the inhibition was inactive: -15.2%. `c1nnnn1CCn1cnnn1` was tested, and the inhibition was inactive: -25.1%. `CC(C)C(=O)NC(Sc1ccccc1)C(Cl)(Cl)Cl` (configuration not stated) was tested, and the inhibition was inactive: -25.4%. In the case of `O=P(Nc1nccs1)(c1ccccc1)c1ccccc1`, the inhibition is reported as inactive: -20.5%. With `CN(C)C(=O)OCCc1n(C)cc[n+]1C` the inhibition was inactive: -31.8%. In the case of `CC(C)=N/N=C(\N)N[N+](=O)[O-]`, the inhibition is reported as inactive: -13.3%. For `CC1CCN(C(=O)Oc2c(Cl)cc(Cl)c3cccnc23)CC1`, the inhibition was inactive: -10.9%. For `C[N+]1=C2C=CC=CC=C2SC12C([N+](=O)[O-])=CC([N+](=O)[O-])=C[C-]2[N+](=O)[O-]` (configuration not stated), the inhibition was inactive: -58.4%. With `Nc1ccc([As](=O)(O)c2ccc(N)cc2)cc1` the inhibition was inactive: -13.8%. With `CCN(/C(=N/P(=O)(N1CCOCC1)N1CCOCC1)N1CCOCC1)c1ccc(OC)cc1` the inhibition was inactive: -16.3%. In the case of `O=[N+]([O-])c1cccc2n[nH]nc12`, the inhibition is reported as inactive: 36.5%. `CC(=O)N1C2C3N(C(C)=O)C1C1N(C(C)=O)C(C(N1C(C)=O)N3C(C)=O)N2C(C)=O` was tested, and the inhibition was inactive: -7.77%. In the case of `CCc1nc2c(n1)c1c(non1O)c1c2no[n+]1[O-]`, the inhibition is reported as inactive: -7.31%. In the case of `O=[N+]([O-])c1cc([N+](=O)[O-])c(CCNc2ccccc2)c([N+](=O)[O-])c1`, the inhibition is reported as inactive: -32.1%. With `Cc1ccc(NP(=O)(Oc2ccccc2)Oc2ccccc2)nc1` the inhibition was inactive: -4.93%. With `COc1ccc(C2=NCC(CBr)S2)cc1` (configuration not stated) the inhibition was inactive: -8.31%. `O=[N+]([O-])c1cccc(NC2=NCC(CBr)S2)c1` (configuration not stated) was tested, and the inhibition was inactive: 4.31%. With `O=C(O)CNc1ccc([As](=O)(O)O)cc1` the inhibition was inactive: 3.14%. In the case of `CC(C)(C)C(=O)NC(Sc1ccncn1)C(Cl)(Cl)Cl` (configuration not stated), the inhibition is reported as inactive: -58.5%. With `O=[N+]([O-])c1ncn(CCn2ncnc2[N+](=O)[O-])n1` the inhibition was inactive: -2.7%. `O=C(Nc1cc([As](=O)(O)O)ccc1O)c1ccccc1` was tested, and the inhibition was inactive: -40.4%. `CCN(N=Nc1nonc1N)c1nonc1N` was tested, and the inhibition was inactive: -14.7%. `Nc1cccc2ccc([As](=O)(O)O)cc12` was tested, and the inhibition was inactive: -26.3%. With `Cc1ccc(NP(=O)(Oc2ccccc2F)Oc2ccccc2F)nc1` the inhibition was inactive: -13.8%. In the case of `Cc1cc(SC(NC(=O)c2ccc(F)cc2)C(Cl)(Cl)Cl)ncn1` (configuration not stated), the inhibition is reported as inactive: -23.8%. In the case of `CCOP(=O)(Nc1ccccc1)OCC`, the inhibition is reported as inactive: -3.53% and inactive: 2.55%. For `CC(=O)Nc1ccc([As](=O)(O)O)cc1`, the inhibition was inactive: -3.74%. In the case of `O=C(O)c1ccccc1[As](=O)(O)O`, the inhibition is reported as inactive: -14.2%. For `O=P(Nc1nc2ccc(Cl)cc2s1)(c1ccccc1)c1ccccc1`, the inhibition was inactive: -80.7%. `Nc1cc(N)c2nonc2c1[N+](=O)[O-]` was tested, and the inhibition was inactive: -9.44%. `CC(C)CC(=O)NC(Sc1ccc(Cl)cc1)C(Cl)(Cl)Cl` (configuration not stated) was tested, and the inhibition was inactive: -11%. `O=C(NC(Sc1ccncn1)C(Cl)(Cl)Cl)c1ccccc1` (configuration not stated) was tested, and the inhibition was inactive: -8.79%. In the case of `Cc1c2non([O-])c-2c(C)[n+](=O)[n+]1[O-]`, the inhibition is reported as inactive: 25.7%. With `Oc1ccccc1CNc1ccccn1` the inhibition was inactive: -17.2%. `Cc1ccc(OP(=O)(Nc2nccs2)Oc2ccc(C)cc2)cc1` was tested, and the inhibition was inactive: -17.1%. `COc1ccccc1OP(=O)(Nc1ccc(C)cn1)Oc1ccccc1OC` was tested, and the inhibition was inactive: -26.3%. With `CN1CCCC(OC(=O)C(c2ccccc2)c2ccccc2)C1` (configuration not stated) the inhibition was inactive: 5.71%. For `Clc1ccc(Cl)c(NC2=NCC(CBr)S2)c1` (configuration not stated), the inhibition was inactive: 3.29%. With `NC(=O)c1cc([N+](=O)[O-])cc([N+](=O)[O-])c1N` the inhibition was inactive: 7.17%. `Cc1ccc(N/C(=N/P(=O)(N2CCOCC2)N2CCOCC2)N2CCOCC2)cc1` was tested, and the inhibition was inactive: -9.92%. In the case of `COc1ccc(N/C(=N/P(=O)(N2CCOCC2)N2CCOCC2)N2CCOCC2)cc1`, the inhibition is reported as inactive: -8%. `COc1cc(I)ccc1[As](=O)(O)O` was tested, and the inhibition was inactive: 0.15%. `COc1ccc2nc(NP(=O)(c3ccccc3)c3ccccc3)sc2c1` was tested, and the inhibition was inactive: -18.8%. With `Cc1cc(=O)[nH]c(N[N+](=O)[O-])n1` the inhibition was inactive: -15%. With `O=C(OC1CN2CCC1CC2)C12CC3CC(CC(C3)C1)C2` (configuration not stated) the inhibition was inactive: 3.44%. In the case of `Cc1c2c(nc3ccccc13)SC(C(Cl)Cl)C2` (configuration not stated), the inhibition is reported as inactive: 4.27%. For `O=[N+]([O-])c1cc([N+](=O)[O-])c(-c2ccn[nH]2)s1`, the inhibition was inactive: -41.2%. `CC(C)NC(=O)NP(=O)(Oc1ccccc1)Oc1ccccc1` was tested, and the inhibition was inactive: -28.1%. In the case of `CCN(CC)C(=S)SC(NC=O)C(Cl)(Cl)Cl` (configuration not stated), the inhibition is reported as inactive: -82.4%. For `CC(C)c1ccc(OP(=O)(Nc2ccccn2)Oc2ccccc2F)cc1` (configuration not stated), the inhibition was inactive: -10.4%. In the case of `ClCCSc1nnc(-c2cccnc2)o1`, the inhibition is reported as inactive: 0.25%. With `Cc1ccc2nc3c(c(C)c2c1)CC(C(Cl)Cl)S3` (configuration not stated) the inhibition was inactive: -1.95%. In the case of `Cc1ccc(OP(=O)(Nc2ccc([N+](=O)[O-])cn2)Oc2ccc(C)cc2)cc1`, the inhibition is reported as inactive: -1.01%. For `C[As](=O)(O)c1cccc(C(=O)O)c1`, the inhibition was inactive: -13.3%. `O=[N+]([O-])c1ccc(Nc2ccc(Oc3ccc([N+](=O)[O-])cc3[N+](=O)[O-])cc2)c([N+](=O)[O-])c1` was tested, and the inhibition was inactive: -17.8%. For `O=P(Nc1ccccn1)(c1cccc2ccccc12)c1cccc2ccccc12`, the inhibition was inactive: -27.2%. For `Cc1cc(SC(NC=O)C(Cl)(Cl)Cl)ncn1` (configuration not stated), the inhibition was inactive: -57.1%. In the case of `CCOC(=O)Nc1cccc([As](=O)(O)O)c1`, the inhibition is reported as inactive: -1.31%. For `Cc1cc(SC(NC(=O)c2ccccc2)C(Cl)(Cl)Cl)nc(C(C)C)n1` (configuration not stated), the inhibition was inactive: -83.3%. In the case of `CCOC(=O)Nc1ccc([As](=O)(O)O)c(O)c1`, the inhibition is reported as inactive: -1.53%. In the case of `CCC(C)N(CC(C)C)C(=S)SC(NC(C)=O)C(Cl)(Cl)Cl` (configuration not stated), the inhibition is reported as inactive: -18%. With `CCOC(=O)c1ccc(NC(=O)C(C)(CCl)SC)cc1` (configuration not stated) the inhibition was inactive: -11.9%. For `O=C(COc1ccccc1)OC1CN2CCC1CC2` (configuration not stated), the inhibition was inactive: -24.5%. `COP1(=S)c2c(C)nn(CCC#N)c2N=C(c2ccc(F)cc2)N1C` (configuration not stated) was tested, and the inhibition was inactive: -17%. With `O=[As](O)(c1ccccc1Br)c1ccccc1Br` the inhibition was inactive: 1.5%. `CC(C)/C=N\N=C(\N)N[N+](=O)[O-]` was tested, and the inhibition was inactive: -16.4%. With `CN(C(=O)Cc1ccc(Cl)c(Cl)c1)[C@@H]1CCCC[C@H]1N1CCCC1` the inhibition was inactive: 7.64%. With `CC(C)(C)C(=O)NC(Sc1ncccn1)C(Cl)(Cl)Cl` (configuration not stated) the inhibition was inactive: -39.7%. With `Clc1n[nH]nc1-c1nn[nH][15n]1` the inhibition was inactive: 3.02%. In the case of `CCOP(=O)(Nc1ccc(C)cn1)OCC`, the inhibition is reported as inactive: -41.2%. `O=P1(Nc2ccccn2)COc2ccccc2OC1` was tested, and the inhibition was inactive: -7.2%. For `Cc1ccc(OCC(=O)OC2CN3CCC2CC3)cc1` (configuration not stated), the inhibition was inactive: 5.29%. For `O=[As](O)(c1cccs1)c1cccs1`, the inhibition was inactive: -13.3%. In the case of `O=P1(Nc2ccc(Br)cn2)COc2ccccc2OC1`, the inhibition is reported as inactive: -22.3%. In the case of `Nc1cccc([As](=O)(O)c2ccccc2)c1`, the inhibition is reported as inactive: -6.71%.
